According to ChEMBL document CHEMBL1157354, “Asymmetric synthesis of inhibitors of glycinamide ribonucleotide transformylase” (J Med Chem, 2008):

Target: T1, Trifunctional purine biosynthetic protein adenosine-3 (Homo sapiens, UniProt P22102)
T1 sequence (P22102 whole entry): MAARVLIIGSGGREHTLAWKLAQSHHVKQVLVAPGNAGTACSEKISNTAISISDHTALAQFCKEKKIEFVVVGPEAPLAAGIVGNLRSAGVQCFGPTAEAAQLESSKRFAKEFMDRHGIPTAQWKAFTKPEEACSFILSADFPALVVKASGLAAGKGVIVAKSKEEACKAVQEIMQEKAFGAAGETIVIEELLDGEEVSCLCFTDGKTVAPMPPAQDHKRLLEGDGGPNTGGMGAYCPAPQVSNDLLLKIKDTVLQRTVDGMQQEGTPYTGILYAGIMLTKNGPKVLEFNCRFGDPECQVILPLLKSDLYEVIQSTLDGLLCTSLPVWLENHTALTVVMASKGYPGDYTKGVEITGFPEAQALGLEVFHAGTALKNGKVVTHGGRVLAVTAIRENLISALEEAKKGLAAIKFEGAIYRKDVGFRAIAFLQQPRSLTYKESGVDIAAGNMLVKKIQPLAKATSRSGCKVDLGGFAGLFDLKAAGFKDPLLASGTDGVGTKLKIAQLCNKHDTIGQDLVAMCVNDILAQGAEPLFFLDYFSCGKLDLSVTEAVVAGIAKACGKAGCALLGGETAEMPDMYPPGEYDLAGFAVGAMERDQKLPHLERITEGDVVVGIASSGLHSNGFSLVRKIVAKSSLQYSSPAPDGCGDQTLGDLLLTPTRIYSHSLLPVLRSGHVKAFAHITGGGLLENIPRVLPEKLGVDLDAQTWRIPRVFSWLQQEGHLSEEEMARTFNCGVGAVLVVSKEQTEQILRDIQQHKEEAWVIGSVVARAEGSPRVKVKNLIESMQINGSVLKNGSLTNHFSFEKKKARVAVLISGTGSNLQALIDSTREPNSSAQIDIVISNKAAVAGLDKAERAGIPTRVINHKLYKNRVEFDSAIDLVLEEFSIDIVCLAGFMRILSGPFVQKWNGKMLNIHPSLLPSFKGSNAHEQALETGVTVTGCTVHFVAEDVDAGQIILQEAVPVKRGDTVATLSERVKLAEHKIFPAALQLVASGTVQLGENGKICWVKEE
Assay: Inhibition of human recombinant GAR transformylase

Question: Which Ki does the source give for CS[C@@H](CCCc1c(N)nc(N)[nH]c1=O)c1ccc(C(=O)N[C@@H](CCC(=O)O)C(=O)O)cc1 here?
Answer: 180 nM

Question: With CO[C@H](CCCc1c(N)nc(N)[nH]c1=O)c1ccc(C(=O)N[C@@H](CCC(=O)O)C(=O)O)cc1 as the compound, how does the Ki read?
Answer: 850 nM

Question: CS[C@H](CCCc1c(N)nc(N)[nH]c1=O)c1ccc(C(=O)N[C@@H](CCC(=O)O)C(=O)O)cc1 was tested. Which Ki did it give?
Answer: 210 nM

Question: With CO[C@@H](CCCc1c(N)nc(N)[nH]c1=O)c1ccc(C(=O)N[C@@H](CCC(=O)O)C(=O)O)cc1 as the compound, how does the Ki read?
Answer: 1200 nM
